Measured values: article PMC5438973 (Frontiers in Psychiatry, 2017)

The chains behind the UniProt entries cited, without tags or fusion partners. Residues count along the entry.
UniProt P41595, whole entry: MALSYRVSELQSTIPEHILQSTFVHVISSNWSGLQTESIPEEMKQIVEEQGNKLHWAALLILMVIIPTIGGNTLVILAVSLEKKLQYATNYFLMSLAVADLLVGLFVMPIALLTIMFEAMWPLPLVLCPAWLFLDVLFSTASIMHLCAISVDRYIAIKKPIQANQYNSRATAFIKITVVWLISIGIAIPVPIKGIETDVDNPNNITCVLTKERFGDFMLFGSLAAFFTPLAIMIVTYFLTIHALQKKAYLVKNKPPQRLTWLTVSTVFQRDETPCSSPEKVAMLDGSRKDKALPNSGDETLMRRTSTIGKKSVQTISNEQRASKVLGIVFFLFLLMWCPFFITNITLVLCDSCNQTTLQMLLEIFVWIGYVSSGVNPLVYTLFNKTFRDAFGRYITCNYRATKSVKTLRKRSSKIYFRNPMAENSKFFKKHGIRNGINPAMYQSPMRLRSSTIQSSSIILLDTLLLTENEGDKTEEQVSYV
UniProt P28335, 33-458: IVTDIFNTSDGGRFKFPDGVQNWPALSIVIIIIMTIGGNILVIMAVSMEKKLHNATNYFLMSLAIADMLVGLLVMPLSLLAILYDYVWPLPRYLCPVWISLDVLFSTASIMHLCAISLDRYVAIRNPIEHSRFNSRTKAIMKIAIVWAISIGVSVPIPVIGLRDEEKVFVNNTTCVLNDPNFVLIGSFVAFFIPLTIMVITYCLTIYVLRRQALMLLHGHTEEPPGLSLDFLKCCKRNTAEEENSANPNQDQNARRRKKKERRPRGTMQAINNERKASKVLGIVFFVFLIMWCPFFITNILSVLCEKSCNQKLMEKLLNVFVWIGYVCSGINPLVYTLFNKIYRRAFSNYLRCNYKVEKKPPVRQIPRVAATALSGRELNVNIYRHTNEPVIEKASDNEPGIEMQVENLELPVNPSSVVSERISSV
UniProt P28223, whole entry: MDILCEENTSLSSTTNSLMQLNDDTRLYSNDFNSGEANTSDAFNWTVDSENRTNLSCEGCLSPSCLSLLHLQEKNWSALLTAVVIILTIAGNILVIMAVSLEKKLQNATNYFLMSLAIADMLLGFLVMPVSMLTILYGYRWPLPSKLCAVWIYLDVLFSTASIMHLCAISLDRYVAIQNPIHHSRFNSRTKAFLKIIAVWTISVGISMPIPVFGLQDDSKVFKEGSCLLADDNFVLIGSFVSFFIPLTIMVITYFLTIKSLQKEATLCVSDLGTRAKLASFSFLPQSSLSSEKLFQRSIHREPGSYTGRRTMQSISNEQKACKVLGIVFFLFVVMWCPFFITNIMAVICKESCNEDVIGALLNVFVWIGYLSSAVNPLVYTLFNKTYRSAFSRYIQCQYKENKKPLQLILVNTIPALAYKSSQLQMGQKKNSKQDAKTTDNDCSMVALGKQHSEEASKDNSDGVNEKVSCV

How the values were obtained:
Assay in all cases: GTP-γ-[35S] functional assay (SPA), AV12 cells
Format in all cases: biochemical
h5-HT2B = biological target: T1, h5-HT2B (Homo sapiens, UniProt P41595)
T1 construct: expressed in transfected cells; host or cells: AV12 cells
From the text: (§1) 5-HT2 receptors are functionally coupled to specific G-proteins. Agonist activation of 5-HT2 G-protein coupled receptors results in the release of GDP from alpha-subunit (G alpha q or G alpha i) of the G-protein and the subsequent binding of GTP. The binding of the stable analog GTP-g-[^35S] is an indicator of receptor activation. Human cloned 5-HT2A, −2B, and −2C receptors were expressed in AV12 cells. GTP-g-[^35S] nucleotide exchange scintillation proximity assay (SPA) was used to measure binding as previously described ([14]).

h5-HT2C = biological target: T2, h5-HT2C (Homo sapiens, UniProt P28335)
T2 construct: expressed in transfected cells; host or cells: AV12 cells
From the text: as §1

h5-HT2A = biological target: T3, h5-HT2A (Homo sapiens, UniProt P28223)
T3 construct: expressed in transfected cells; host or cells: AV12 cells
From the text: as §1

## Clc1cccc(N2CCNCC2)c1 [mCPP, meta-chlorophenylpiperazine]
h5-HT2B
  EC50: 2 ± 1 nM
h5-HT2C
  EC50: 1 nM
h5-HT2A
  EC50: 97 ± 1 nM
